Reference: patent US12630632B2, “Bispecific HER2 and CD3 binding molecules” (Memorial Sloan Kettering Cancer Center, priority 2017, dated 2026)

Key:
[1] = system: osteosarcoma cell line U2OS; experiment: Cell proliferation assay (WST-8); type: cell-based, human; conditions: 10 nM kinase inhibitors, 10 μg/mL antibodies
Description: (§1) Cell proliferation was determined using an ELISA plate reader and the WST-8 kit (Dojindo technologies) following the manufacturer's instructions and using the formula: % survival rate=(Sample-Background)/(Negative control-Background). Lapatinib (MSKCC pharmacy) was ground using a mortar and pestle and suspended in DMSO as previously described. To determine statistical significance, the results were analyzed using one-way ANOVA using Prism 6.0.
(§2) For cell proliferation assays, 5,000 tumor cells were plated using RPMI-1640 supplemented with 10% FBS in a 96 well plate for 36 hours before being treated with lapatinib or the antibodies at the specified concentrations. Cell proliferation was determined using an ELISA plate reader and the WST-8 kit (Dojindo technologies) following the manufacturer's instructions and using the formula: % survival rate=(Sample-Background)/(Negative control-Background). Lapatinib (Memorial Sloan Kettering Cancer Center pharmacy) was ground using a mortar and pestle and suspended in DMSO as previously described (Chen et al., 2012, Molecular cancer therapeutics 11:660-669). To determine statistical significance, the results were analyzed using one-way ANOVA using Prism 6.0.
(§3) For tumor cell proliferation, 5,000 tumor cells were plated using RPMI-1640 supplemented with 10%, fetal bovine serum (“FBS”) in a 96 well plate for 36 hours before being treated with—kinase inhibitors or the antibodies at the specified concentration. Cell proliferation was determined using the cell counting WST-8 kit (Dojindo technologies) following the manufacturer's instructions and using the formula: % survival rate=(Sample-Background)(Negative control-Background). Lapatinib was ground using a mortar and pestle and suspended in DMSO as previously described (Chen et al., Molecular cancer therapeutics 2012; 11:660-9). To determine statistical significance, the results were analyzed using one-way ANOVA using Prism 6.0.

[2] = system: cervical carcinoma HeLa cells; experiment: Cell proliferation assay (WST-8); type: cell-based, human; conditions: 10 nM kinase inhibitors, 10 μg/mL antibodies
Description: as §1, §2, §3

SCCHN cell line PCI-30 = experiment: Cell proliferation assay (WST-8); type: cell-based, human; conditions: 10 nM kinase inhibitors, 10 μg/mL antibodies
Description: as §1, §2, §3

[3] = system: HER2 positive breast cancer; conditions: patients with HER2 positive breast cancer; cited from earlier work

| Substance | sensitivity in proliferation assay [1] | sensitivity in proliferation assay [2] | sensitivity in proliferation assay ([2]; listed as Cetuximab) | sensitivity in proliferation assay (SCCHN cell line PCI-30) | patients initially responding [3] |
| --- | --- | --- | --- | --- | --- |
| cetuximab | resistant | resistant | pan-resistant | resistant | – |
| trastuzumab | – | – | – | – | Less than 35% |
